# Ab-14 light chain CDR variants: yeast mating affinities

Source: Li et al. 2023 (doi:10.1038/s41467-023-39022-2), MIT Lincoln Laboratory and A-Alpha Bio; data file from the FLAb repository.

Antigen: PDVDLGDISGINAS, a 14-residue peptide of the SARS-CoV-2 spike HR2 region.

Ab-14 is the parent antibody, in scFv form: VH, then a 15-residue (Gly4Ser)3 linker, then VL. The heavy chain is unchanged in all variants.
VH: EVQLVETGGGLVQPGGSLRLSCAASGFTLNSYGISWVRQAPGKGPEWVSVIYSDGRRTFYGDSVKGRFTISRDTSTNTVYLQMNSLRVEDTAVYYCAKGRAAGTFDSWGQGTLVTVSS
VL: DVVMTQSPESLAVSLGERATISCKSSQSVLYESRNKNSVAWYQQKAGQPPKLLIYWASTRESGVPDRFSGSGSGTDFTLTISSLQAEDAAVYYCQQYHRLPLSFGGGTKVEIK

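The starting antibody came from a phage panning campaign against this peptide. Designed CDR sequences, proposed from the first random library and measured here. Their group label is 14L_GP_Gibbs (GP: Gaussian process model; Gibbs: Gibbs sampling; a sequence that several methods proposed may carry one label only). In AlphaSeq, yeast of one mating type display the scFv and yeast of the other type display the target. After mating in shaken culture at 30 °C for 16 h, diploids were selected and their barcode pairs sequenced. Read counts were normalised to the haploid input and turned into Kd by a linear fit to BCL2-family pairs of known affinity, for each replicate. Mating was done six times.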

Variants are written as CDR1, CDR2 and CDR3 of the light chain (limits as in the source). Parent: KSSQSVLYESRNKNSVA, WASTRES, QQYHRLPLS.
Values are log10 of the apparent Kd in nM; lower means stronger binding.
"ND" means that the variant was in the library but no mating with the target was seen in that replicate; the authors take this as a sign of poor binding, and no number exists.
In the paper, a design with two or fewer of six values counts as a poor binder.
Of ten entries with the parent sequence, four were seen in most replicates (averages 0.34 to 2.37), three in one and three in none, so single entries are noisy.
Nonspecific signal, from three strains lacking the peptide, appeared in 4% of pairings of all light chain designs, centred on 2.64 (5% of these signals below 1.59); values are not corrected for it. The control count says in how many pairings with the empty strains this scFv gave a signal, with their mean in brackets.
A sequence measured in both rounds can read differently, since the two assays cover different ranges.

CDR-L1,CDR-L2,CDR-L3,"log10 Kd, replicates",signal with controls
KLSQSWLMESRNKNQVA,HASTRMS,QQYHRLPLS,0.99 / 0.97 / 0.90 / 0.79 / 1.33 / 0.84,0 of 18
KVWMSQLYESRNKNAVA,NASLRMS,QQYHRLPLS,0.52 / 0.43 / 0.19 / 0.29 / 0.35 / 0.19,1 of 18 (2.28)
KFQQEMLYESRNKNSVA,NASCRES,QQYHRLPLS,0.57 / 0.02 / 0.17 / -0.17 / 0.01 / 0.32,1 of 18 (2.28)
KLSQMVDYESRNMNNVA,NASTRES,QDYHRLPLS,0.01 / -0.15 / -0.03 / -0.08 / -0.05 / 0.07,3 of 18 (2.83)
KLQQSELGESRNMNSVA,HASTRES,QQYHRLPLS,1.97 / 0.65 / 0.70 / 0.59 / 0.77 / 0.73,1 of 18 (4.12)
KLQNQYEYESRMMNSVA,NASTRLE,QQYHRLPLS,0.25 / 0.08 / -0.14 / -0.20 / 0.02 / 0.04,1 of 18 (2.56)
KVSGEMLYESRNKNSVA,HASERES,QDYHRLPLQ,0.00 / 0.10 / 0.09 / -0.19 / -0.03 / 0.17,2 of 18 (2.00)
KVSGLGLYGQRNANSVA,EASTRED,QQYHRLPLS,-0.44 / -0.57 / -0.53 / -0.58 / -0.44 / -0.50,0 of 18
KVSPSMWYESRNKNAVA,HASQRES,QQYHRLPLQ,0.32 / 0.57 / 0.09 / 0.13 / 0.16 / 0.04,0 of 18
KASPSEEYESRNKNSVA,HASLRLE,QQYHRLPLS,0.37 / 0.37 / 0.45 / 0.19 / 0.14 / 0.71,0 of 18
LLQGSEQYESRNKNSVA,DASTRES,QAYHRLPLS,1.04 / 0.80 / 0.72 / 0.28 / 0.65 / 0.51,1 of 18 (1.03)
KLDQSVDEKSRNKNSVA,EASTRES,QQYHRLPLS,0.04 / -0.27 / -0.11 / -0.09 / -0.03 / -0.13,2 of 18 (2.15)
KYSQEVPEESRNKNSVA,NASTREE,QQYHRLPLS,0.04 / -0.01 / -0.13 / -0.22 / -0.10 / 0.17,0 of 18
KWMQSDDQESRNKNSVA,HASTRCQ,QQYHRLPLS,0.63 / 0.41 / 0.75 / 0.73 / 0.74 / 0.56,1 of 18 (3.94)
KLSQSEEYESRQFNSVA,HASQRNL,QQYHRLPLS,0.53 / 0.08 / 0.30 / 0.05 / 0.43 / 0.52,0 of 18
KLSQSVWYESRLKNSVA,EASTREY,QQYHRLPLA,0.03 / 0.36 / 0.38 / 0.23 / 0.12 / -0.01,0 of 18
KLSQEDWYQSRMDNSVA,DASTRES,QQYHRLPLS,-0.06 / -0.30 / -0.19 / -0.10 / 0.05 / -0.10,1 of 18 (1.66)
KFQQSQLYESRNMNSVA,NASQREQ,QQYHRLPLK,0.40 / 0.66 / 0.25 / 0.16 / 0.14 / 0.23,0 of 18
KFEGSWGMESRNKNSVA,NASHRMS,QQYHRLPLS,0.47 / 0.27 / 0.33 / 0.33 / 0.19 / 0.50,3 of 18 (3.01)
KLDGSFNYESRNKNSVA,EASERES,QQYHRLPLS,-0.12 / -0.25 / -0.45 / -0.46 / -0.65 / -0.19,0 of 18
KLQMSEMQESRWCNSVA,QASTREE,QQYHRLPLS,0.76 / 0.54 / 0.35 / 0.17 / 0.21 / 0.50,2 of 18 (2.61)
KLQQSMLYMDRNANNVA,NASQRES,QQYHRLPLS,0.41 / 0.25 / 0.30 / -0.14 / 0.53 / 0.69,0 of 18
KMSMSWMQEERNKNSVA,QASQREQ,QQYHRLPLS,0.05 / -0.19 / -0.31 / -0.28 / -0.31 / -0.03,0 of 18
KVVQSVNGLQRNKNSVA,QASTRES,QQYHRLPLS,0.37 / 0.89 / 0.06 / 0.29 / 0.11 / 0.51,0 of 18
KSLISVLDEERNDNSVA,NASHRLS,QQYHRLPLS,0.39 / 0.59 / 0.49 / 0.39 / 0.32 / 0.71,1 of 18 (2.19)
KYSQSDEYESRQFNSVA,NASTRMM,QQYHRLPLS,-0.12 / 0.39 / 0.07 / 0.15 / 0.48 / 0.27,0 of 18
KLSQSHLYESRNSNNVA,MASYRMV,QQYHRLPLS,0.26 / 0.13 / 0.11 / 0.11 / 0.07 / 0.26,0 of 18
KWSWSWLLESRWKNSVA,NASLRES,QQYHRLPLS,ND / 1.53 / 1.99 / 1.42 / 2.29 / 1.10,0 of 18
KVSPSMLGEERNKNSVA,SASTREN,QQYHRLPLS,0.40 / 0.59 / 0.50 / 0.34 / 0.05 / 1.22,0 of 18
KVSQSELGQERNKMSVA,SASTREK,QQYHRLPLS,0.40 / 0.12 / -0.06 / -0.35 / 0.18 / 0.13,2 of 18 (2.88)
KVWFSVLGQERNKMSVA,QASTRES,QQYHRLPLS,0.73 / 1.19 / 0.53 / 0.52 / 0.60 / 0.65,0 of 18
KVEQSMDYESRNVNSVA,NASQRLK,QQYHRLPLS,0.47 / 1.08 / 0.34 / 0.74 / 0.64 / 0.73,0 of 18
KLDFSVLEESRNPNSVA,NASTRES,QDYHRLPLS,0.33 / 0.04 / 0.03 / -0.13 / 0.10 / 0.20,3 of 18 (2.82)
KLPQSWWYESRMKQSVA,NASERES,QQYHRLPLS,0.05 / 0.35 / -0.21 / 0.05 / 0.30 / 0.12,0 of 18
KFQQSVCYEDRVKNSVA,NASDRMS,QQYHRLPLS,0.20 / 0.21 / 0.08 / 0.22 / 0.25 / 0.24,2 of 18 (2.63)
KFSQLVLYEERQKNSVA,DASQRLS,QQYHRLPLS,-0.22 / -0.19 / 0.05 / -0.21 / -0.14 / 0.20,1 of 18 (3.64)
KMSQSNPYEDRNWNSVA,NASKRLS,QQYHRLPLS,0.13 / 0.01 / 0.26 / -0.05 / 0.32 / 0.77,0 of 18
KCQQSQLYESRNKNAVA,NASTRLD,QQYHRLPLS,0.49 / 0.23 / 0.12 / -0.03 / 0.08 / 0.51,1 of 18 (2.67)
KASPSEEYESRMKNSVA,NASTRYS,QQYHRLPLS,0.17 / 0.14 / 0.24 / -0.26 / -0.11 / 0.11,0 of 18
KMQGSVMMLSRNDNSVA,DASTRES,QQYHRLPLS,-0.04 / -0.04 / -0.18 / -0.28 / -0.14 / -0.10,1 of 18 (2.71)
KLDQDDLYESRNCNSVA,QASTREQ,QQYHRLPLS,0.78 / 0.52 / 0.20 / 0.04 / 0.43 / 0.51,0 of 18
KLSTSVMLESRNVNSVA,SASTRSE,QQYHRLPLS,-0.10 / -0.17 / -0.34 / -0.59 / -0.47 / -0.27,1 of 18 (3.00)
KMSQSNDYEERNCNAVA,NASQREE,QQYHRLPLS,0.18 / 0.39 / 0.13 / 0.16 / 0.09 / 0.40,1 of 18 (2.68)
KLQQQDEYWSRNKNSVA,QASTREQ,QQYHRLPLS,-0.32 / -0.50 / -0.68 / -0.58 / -0.68 / -0.46,0 of 18
KLPQEMLYESRMDNSVA,NASQREE,QQYHRLPLS,0.61 / 1.18 / 0.32 / 0.26 / 0.47 / 0.62,0 of 18
KMSQSMLYESRASNSVA,NASNRES,QQYHRLPLS,-0.01 / 0.30 / 0.25 / 0.20 / 0.54 / 0.14,0 of 18
WLSMSVMLWSRNVNSVA,SASTREW,QQYHRLPLS,ND / ND / 3.27 / ND / ND / ND,0 of 18

Excerpt, the first 4 entries:

CDR-L1,CDR-L2,CDR-L3,"log10 Kd, replicates",signal with controls
KLSQSWLMESRNKNQVA,HASTRMS,QQYHRLPLS,0.99 / 0.97 / 0.90 / 0.79 / 1.33 / 0.84,0 of 18
KVWMSQLYESRNKNAVA,NASLRMS,QQYHRLPLS,0.52 / 0.43 / 0.19 / 0.29 / 0.35 / 0.19,1 of 18 (2.28)
KFQQEMLYESRNKNSVA,NASCRES,QQYHRLPLS,0.57 / 0.02 / 0.17 / -0.17 / 0.01 / 0.32,1 of 18 (2.28)
KLSQMVDYESRNMNNVA,NASTRES,QDYHRLPLS,0.01 / -0.15 / -0.03 / -0.08 / -0.05 / 0.07,3 of 18 (2.83)